Tests used:
mouse peripheral nerves [1] = experiment: Cerenkov luminescence imaging of mice injected with [^64Cu]Cu-Bac-Hs1a; type: in vivo; settings: resected nerves; unit not printed in b35 (p/s/cm^2/sr)
Procedure, shortened: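 Athymic nude mice received PBS-formulated [⁶⁴Cu]Cu-Bac-Hs1a alone, or a block formulation of radiotracer plus unlabeled Hs1a. Nerves and organs were resected and imaged ex vivo by Cerenkov luminescence. ROIs were drawn on resected organs under overlay guidance. Data are mean ± SD of biological replicates, compared by parametric Student's t test.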

[2] = acute biodistribution, organ radioactivity; type: in vivo; settings: mouse, total radioactivity
Procedure, shortened: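 Athymic nude mice were given PBS-formulated [⁶⁴Cu]Cu-Bac-Hs1a, either alone or as a block formulation with unlabeled Hs1a. Radioactivity in each organ was expressed as percentage of injected dose per gram of tissue (%ID/g). Data are mean ± SD of biological replicates; groups compared by Student's unpaired t test.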

[3] = PET imaging quantification / acute biodistribution after [^64Cu]Cu-Bac-Hs1a; type: in vivo; settings: athymic nude, mouse, liver, total radioactivity, liver (highest non-target uptake), 60 min post-injection
[4] = Radio-HPLC stability in saline and serum solutions; type: in vitro ADME; settings: n = 3
mouse peripheral nerves [5] = experiment: in vivo/ex vivo epifluorescence imaging
Procedure, shortened: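 Athymic mice got Bac-Hs1a i.v. by lateral tail vein (1 nmol; 11 μM in 100 μL PBS) or 100 μL PBS, and were sacrificed 30 min later (terminal). Peripheral nerves of upper and lower extremities were surgically exposed. IVIS Spectrum epifluorescence (ex 680/20 nm, em 720–750 nm) was taken before and after exposure and on resected organs. Mean ± SD of biological replicates; unpaired t test.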

[6] = biodistribution, resected organs, fluorescence, 30 min after i.v. injection
[7] = mice after lateral tail vein injection, epifluorescence

SMILES: CC(C)C[C@H](NC(=O)[C@H](CCCCN)NC(=O)CNC(=O)[C@H](CCCCN)NC(=O)[C@@H]1CSSC[C@@H]2NC(=O)[C@H](CCCCN)NC(=O)[C@H](CC(=O)O)NC(=O)[C@H](CC(N)=O)NC(=O)[C@H](CCCCNC(=O)CCC(=O)N3CC4c5nc(c(-c6c(F)c(F)c(F)c(F)c6F)c6ccc([nH]6)c(-c6c(F)c(F)c(F)c(F)c6F)c6nc(c(-c7c(F)c(F)c(F)c(F)c7F)c7ccc([nH]7)c5-c5c(F)c(F)c(F)c(F)c5F)C5CN(C)CC65)C4C3)NC(=O)[C@@H]3CCCN3C(=O)[C@H](CC(N)=O)NC(=O)[C@@H]3CSSC[C@H](NC(=O)[C@H](C(C)C)NC(=O)[C@H](CC(C)C)NC(=O)[C@H](CC(N)=O)NC(=O)[C@H](C)NC(=O)[C@H](CSSC[C@H](NC(=O)[C@H](CC(=O)O)NC(=O)[C@H](CC(N)=O)NC(=O)CN)C(=O)N[C@@H](CC(C)C)C(=O)NCC(=O)N[C@@H](Cc4ccccc4)C(=O)N[C@@H](Cc4c[nH]c5ccccc45)C(=O)N[C@@H](CO)C(=O)N[C@@H](C)C(=O)N3)NC2=O)C(=O)N[C@@H](CO)C(=O)N[C@@H](CO)C(=O)N[C@@H](CCCCN)C(=O)N[C@@H](Cc2c[nH]cn2)C(=O)N[C@@H](CCCCN)C(=O)N[C@@H](Cc2c[nH]c3ccccc23)C(=O)N1)C(=O)O (stereo partly drawn) [[^64Cu]Cu-Bac-Hs1a, metal not drawn]
- mean radiant efficiency (Cerenkov luminescence), brachial plexus, ex vivo (mouse peripheral nerves [1]): 6378 ± 2048
- radiant efficiency (Cerenkov luminescence), sciatic nerves, ex vivo (mouse peripheral nerves [1]): 6635 ± 1773
- tissue uptake ([2]; liver): 35.8 ± 0.5 %ID/g
- tissue uptake ([2]; peripheral nerves): 41.8 ± 0.8 %ID/g
- tissue uptake at 1 h [3]: 9.8 ± 2.8 %ID/g
- stability of the radiolabeled tracer (radiochemical purity) [4]: high stability

SMILES: CC(C)C[C@H](NC(=O)[C@H](CCCCN)NC(=O)CNC(=O)[C@H](CCCCN)NC(=O)[C@@H]1CSSC[C@@H]2NC(=O)[C@H](CCCCN)NC(=O)[C@H](CC(=O)O)NC(=O)[C@H](CC(N)=O)NC(=O)[C@H](CCCCNC(=O)CCC(=O)N3CC4c5nc(c(-c6c(F)c(F)c(F)c(F)c6F)c6ccc([nH]6)c(-c6c(F)c(F)c(F)c(F)c6F)c6nc(c(-c7c(F)c(F)c(F)c(F)c7F)c7ccc([nH]7)c5-c5c(F)c(F)c(F)c(F)c5F)C5CN(C)CC65)C4C3)NC(=O)[C@@H]3CCCN3C(=O)[C@H](CC(N)=O)NC(=O)[C@@H]3CSSC[C@H](NC(=O)[C@H](C(C)C)NC(=O)[C@H](CC(C)C)NC(=O)[C@H](CC(N)=O)NC(=O)[C@H](C)NC(=O)[C@H](CSSC[C@H](NC(=O)[C@H](CC(=O)O)NC(=O)[C@H](CC(N)=O)NC(=O)CN)C(=O)N[C@@H](CC(C)C)C(=O)NCC(=O)N[C@@H](Cc4ccccc4)C(=O)N[C@@H](Cc4c[nH]c5ccccc45)C(=O)N[C@@H](CO)C(=O)N[C@@H](C)C(=O)N3)NC2=O)C(=O)N[C@@H](CO)C(=O)N[C@@H](CO)C(=O)N[C@@H](CCCCN)C(=O)N[C@@H](Cc2c[nH]cn2)C(=O)N[C@@H](CCCCN)C(=O)N[C@@H](Cc2c[nH]c3ccccc23)C(=O)N1)C(=O)O (stereo partly drawn) [Bac-Hs1a]
- difference in radiant efficiency vs PBS, sciatic nerve (mouse peripheral nerves [5]; Bac-Hs1a-injected vs PBS-injected mice): 15 fold
- fluorescence in other organs (muscles, heart, spleen, brain) vs PBS group (mouse peripheral nerves [5]; biodistribution, fluorescence): did not observe significant fluorescence
- kidney radiant efficiency (mouse peripheral nerves [5]; [6]): 3.8 ± 1.3 × 10^7
- liver radiant efficiency (mouse peripheral nerves [5]; [6]): 2.1 ± 1.0 × 10^7
- radiant efficiency after surgical nerve exposure (post) (mouse peripheral nerves [5]; [7]): 0.69 ± 0.02 × 10^9
- radiant efficiency before surgical nerve exposure (pre) (mouse peripheral nerves [5]; [7]): 0.7 ± 0.04 × 10^9
